Source: US8779001B2, “Stat3 inhibitors” (The United States of America National Institute of Health …, priority 2008, dated 2014)

Chains of the proteins cited; added tags and fusions are not shown.
UniProt P40763, whole entry: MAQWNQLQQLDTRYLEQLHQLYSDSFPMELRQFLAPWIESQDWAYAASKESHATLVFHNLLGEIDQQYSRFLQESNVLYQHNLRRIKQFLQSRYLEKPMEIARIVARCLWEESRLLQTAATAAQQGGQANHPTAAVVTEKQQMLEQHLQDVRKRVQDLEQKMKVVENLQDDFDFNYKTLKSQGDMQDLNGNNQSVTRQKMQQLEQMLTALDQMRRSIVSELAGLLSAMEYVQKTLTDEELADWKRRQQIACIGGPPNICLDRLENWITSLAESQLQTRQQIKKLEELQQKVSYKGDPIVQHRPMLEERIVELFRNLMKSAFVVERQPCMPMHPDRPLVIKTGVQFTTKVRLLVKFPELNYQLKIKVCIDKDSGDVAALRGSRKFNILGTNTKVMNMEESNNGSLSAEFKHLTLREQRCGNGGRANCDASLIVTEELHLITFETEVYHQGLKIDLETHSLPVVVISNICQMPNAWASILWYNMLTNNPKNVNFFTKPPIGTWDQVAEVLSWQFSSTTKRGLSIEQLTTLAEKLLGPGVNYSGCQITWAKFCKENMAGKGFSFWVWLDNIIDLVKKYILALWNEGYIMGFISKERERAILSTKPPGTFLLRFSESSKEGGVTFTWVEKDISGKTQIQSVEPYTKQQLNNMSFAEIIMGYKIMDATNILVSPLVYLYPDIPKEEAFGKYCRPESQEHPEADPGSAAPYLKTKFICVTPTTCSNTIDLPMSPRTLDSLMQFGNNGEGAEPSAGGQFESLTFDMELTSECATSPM

Legend:
[1] = system: SUM159PT and HS578T cells; experiment: Mammosphere assay (MSFE) in vitro; assay type: cell-based
[2] = biological target: Stat3 (Homo sapiens, UniProt P40763); experiment: Stat3 SH2/pY-peptide binding assay (SPR, BIAcore); settings: read-out: SPR IC50; Table 6, mean ± SD

IC50 [2] [µM] | IC50 ([1]; read-out: Mammosphere ~IC50, SUM159PT and HS578T cells, compound at 1, 10 or 100 μM, spheres counted on day 3) [µM] | Structure (SMILES) | effect on self-renewal as measured by MSFE ([1]; initial studies) | activity in decreasing MSFE compared with parent Cpd188 ([1]; relative to parent compound) [log greater activity]
2 | – | O=S(=O)(Nc1cc(Sc2ncn[nH]2)c(O)c2ccccc12)c1ccc(Br)cc1 | affects self-renewal | 1
8 | 30 | Cc1cc(C)c(S(=O)(=O)Nc2cc(Cl)c(O)c3ccccc23)cc1C | – | –
